Experimental data taken from patent publication US8765820B2, “Tranylcypromine derivatives as inhibitors of histone demethylases LSD1 and/or LSD2” (Universita Degli Studi di Roma “La Sapienza”, priority 2010, dated 2014).

Sequences of proteins named here, by UniProt entry; tags and fusion partners are left off. A change or cut given only in a name is not applied to a line headed by its entry.
UniProt Q8CIG3: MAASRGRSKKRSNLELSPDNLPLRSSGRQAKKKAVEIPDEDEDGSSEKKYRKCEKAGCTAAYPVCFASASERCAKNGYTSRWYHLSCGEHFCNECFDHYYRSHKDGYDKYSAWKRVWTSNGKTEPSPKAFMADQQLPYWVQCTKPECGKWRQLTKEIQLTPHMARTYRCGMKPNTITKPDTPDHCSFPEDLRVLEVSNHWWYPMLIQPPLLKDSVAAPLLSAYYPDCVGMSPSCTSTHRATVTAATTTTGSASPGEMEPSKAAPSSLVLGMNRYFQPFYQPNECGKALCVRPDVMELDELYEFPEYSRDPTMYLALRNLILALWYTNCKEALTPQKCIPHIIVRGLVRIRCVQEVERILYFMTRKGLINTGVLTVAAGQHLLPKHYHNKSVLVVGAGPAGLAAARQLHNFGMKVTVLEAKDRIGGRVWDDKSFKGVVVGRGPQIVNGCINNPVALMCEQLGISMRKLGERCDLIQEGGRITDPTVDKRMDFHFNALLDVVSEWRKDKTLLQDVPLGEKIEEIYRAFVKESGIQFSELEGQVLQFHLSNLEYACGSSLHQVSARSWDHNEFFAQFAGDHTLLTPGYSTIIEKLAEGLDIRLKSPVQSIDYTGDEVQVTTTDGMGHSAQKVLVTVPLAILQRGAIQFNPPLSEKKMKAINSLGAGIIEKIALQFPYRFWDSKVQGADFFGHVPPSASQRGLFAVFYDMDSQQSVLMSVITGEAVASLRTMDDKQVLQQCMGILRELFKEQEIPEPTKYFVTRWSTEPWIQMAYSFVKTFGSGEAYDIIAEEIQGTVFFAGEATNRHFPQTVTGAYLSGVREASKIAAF
UniProt P21397, whole entry, looked up: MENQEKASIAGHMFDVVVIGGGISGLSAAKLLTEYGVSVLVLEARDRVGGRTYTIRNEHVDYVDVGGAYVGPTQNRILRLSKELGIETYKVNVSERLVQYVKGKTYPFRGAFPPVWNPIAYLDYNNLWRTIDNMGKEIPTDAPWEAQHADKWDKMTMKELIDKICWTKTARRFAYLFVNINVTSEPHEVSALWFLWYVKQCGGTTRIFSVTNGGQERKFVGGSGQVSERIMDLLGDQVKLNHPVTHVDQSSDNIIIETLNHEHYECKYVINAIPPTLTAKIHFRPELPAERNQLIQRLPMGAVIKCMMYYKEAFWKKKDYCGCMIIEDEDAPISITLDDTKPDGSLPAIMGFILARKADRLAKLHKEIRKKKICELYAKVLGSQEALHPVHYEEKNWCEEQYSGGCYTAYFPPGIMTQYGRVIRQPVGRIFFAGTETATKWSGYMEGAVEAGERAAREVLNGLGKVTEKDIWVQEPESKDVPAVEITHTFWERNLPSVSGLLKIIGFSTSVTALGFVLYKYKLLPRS

Columns and labels:
Mouse recombinant LSD2 = Mouse recombinant LSD2 (Mus musculus (Mouse), UniProt Q8CIG3); assay: LSD2 inhibition, peroxidase-coupled assay with histone H3 peptide di-methylated at Lys4; format: biochemical
Human recombinant MAO A = Human recombinant MAO A (Homo sapiens (Human), UniProt P21397); assay: MAO A inhibition, peroxidase-coupled assay with kynuramine as substrate; format: biochemical

**Q.** With `Cl.NC1CC1c1ccc(NC(=O)C(Cc2ccccc2)NC(=O)OCc2ccc(Br)cc2)cc1` (stereo not drawn) [Compound 7, trans 4-bromobenzyl 1-(4-(2-aminocyclopropyl)phenylamino)-1-oxo-3-phenylpropan-2-ylcarbamate] as the molecule, how does the LSD2 inhibition (Mouse recombinant LSD2) read?
**A.** +

**Q.** And the “MAO A inhibition” value (Human recombinant MAO A)?
**A.** +
